Patent US20200297862A1, “METHODS OF USING BISPECIFIC ANTIGEN-BINDING CONSTRUCTS TARGETING HER2” (Zymeworks Inc., priority 2016, published 2020)
Read-outs that look alike come from different tables or passages of the source.

Key:
SKOV3 cells [1] = test: ADCC (LDH release); format: cell-based, human
JIMT-1 cells [2] = test: Growth inhibition of HER2+ cells (cell viability); format: cell-based, human; conditions: 300 nM antibody, 3 days; Table 11B
MCF7 cells [3] = test: Binding to HER2+ cells by flow cytometry (FACS): Bmax and apparent KD; set-up: species or system human; conditions: for Kd: apparent KD
Protocol: (§1) The following experiment was performed to measure the ability of an exemplary biparatopic anti-HER2 antibody to bind to cells expressing varying levels of HER2 in comparison to controls. […] The ability of the biparatopic anti-HER2 antibodies to bind to the HER2 expressing (HER2+) cells was determined as described below, with specific measurement of Bmax and apparent KD (equilibrium dissociation constant).
(§2) Binding of the test antibodies to the surface of HER2+ cells was determined by flow cytometry. Cells were washed with PBS and resuspended in DMEM at 1×10^5 cells/100 μl. 100 μl cell suspension was added into each microcentrifuge tube, followed by 10 μl/tube of the antibody variants. The tubes were incubated for 2 hr 4° C. on a rotator. The microcentrifuge tubes were centrifuged for 2 min 2000 RPM at room temperature and the cell pellets washed with 500 μl media. Each cell pellet was resuspended 100 μl of fluorochrome-labelled secondary antibody diluted in media to 2 μg/sample. The samples were then incubated for 1 hr at 4° C. on a rotator. After incubation, the cells were centrifuged for 2 min at 2000 rpm and washed in media. The cells were resuspended in 500 μl media, filtered in tube containing 5 μl propidium iodide (PI) and analyzed on a BD LSR II flow cytometer according to the manufacturer's instructions. The KD of exemplary biparatopic anti-HER2 heterodimer antibody and control antibodies were assessed by FACS with data analysis and curve fitting performed in GraphPad Prism.

JIMT-1 cells [4] = test: as above; set-up: species or system human; conditions: for Kd: apparent KD
Protocol: as §1, §2

BT-474 cells [5] = test: Growth inhibition of HER2+ cells (cell viability); format: cell-based, human; conditions: 200 nM antibody, 3 days; Table 11A
Protocol: The ability of an exemplary biparatopic anti-HER2 antibody to inhibit growth of cells expressing HER2 at the 3+ and 2+ level was measured. […] The ability of the biparatopic anti-HER2 antibodies to inhibit the growth of BT-474 cells (200 nM antibody); SKOV3, SKBr3 and JIMT-1 cells (300 nM antibody) was measured as described below.
Test antibodies were diluted in media and added to the cells at 10 μl/well in triplicate. The plates were incubated for 3 days 37° C. Cell viability was measured using either AlamarBlue™ (Biosource # dal1100), or Celltiter-Glo® and absorance read as per the manufacturer's instructions. Data was normalized to untreated control and analysis was performed in GraphPad prism.

WI-38 cells = test: Binding to basal HER2 cells by flow cytometry (FACS); set-up: species or system human; conditions: Table 10, FIG. 6G
Protocol: as §2

BT-474 cells [6] = test: Growth inhibition in the presence or absence of exogenous ligands (EGF, HRG); format: cell-based, human
SKOV3 cells [7] = test: Growth inhibition of HER2+ cells (cell viability, AlamarBlue or Celltiter-Glo); format: cell-based, human; conditions: 300 nM antibody, 3 days
BT-474 cells [8] = test: Whole cell loading and internalization (AlexaFluor 488 labelled antibody, flow cytometry); format: cell-based, human; conditions: 200 nM labelled antibody, Table 39; for Surface 4° C.: 2 h at 4° C.; for Internal 37° C. / Surface 37° C.: 24 h at 37° C.
MCF7 cells [9] = test: as above; format: cell-based, human; conditions: 200 nM labelled antibody, Table 41; for Surface 4° C.: 2 h at 4° C.; for Internal 37° C. / Surface 37° C.: 24 h at 37° C.
JIMT-1 cells [10] = test: as above; format: cell-based, human; conditions: 200 nM labelled antibody, Table 40; for Surface 4° C.: 2 h at 4° C.
SKOV3 xenograft [11] = test: Human ovarian cancer cell xenograft model, antibody (Example 16); format: in vivo, athymic nude mice
SKBr3 cells = test: Growth inhibition of HER2+ cells (cell viability); format: cell-based, human; conditions: 300 nM antibody, 3 days; Table 11B
SKOV3 xenograft [12] = test: Trastuzumab sensitive ovarian cancer xenograft, antibodies (Example 34); format: in vivo, athymic nude mice
ST1616B/TDR xenograft = test: PDX model of T-DM1 resistant HER2 overexpressing breast cancer (Example 55); format: in vivo, athymic nude mice
Protocol: ST1616B/TDR was derived from a metastatic lung biopsy of a patient with breast carcinoma after receiving T-DM1 treatment. ST1616B/TDR overexpresses HER2/ERBB2 (HER2 3+) and is resistant to T-DM1.
To compare growth rates between treatment groups, a linear mixed-effect model was fit to log transformed tumor volumes over time. Two-sided t-test of tumor growth rate parameters was performed to assess differences in growth rate between treatment groups, and the resulting p-values were adjusted for multiple tests using the Holm-Bonferroni procedure. Adjusted p-values below 0.05 were considered statistically significant.

OVXF1320 xenograft = test: PDX model of HER2 positive ovarian cancer (Example 54); format: in vivo, athymic nude mice
HBCx-13B xenograft = test: PDX model of HER2 positive breast cancer, v10553 (Example 53); format: in vivo, athymic nude mice

In the case of “v792: wild-type trastuzumab with IgG1 hinge and heterodimeric Fc, trastuzumab analog”, the “% Max Cell Lysis” value (SKOV3 cells [1]; E:T 1:1, Table 14) is reported as 7.529%, the EC50 (SKOV3 cells [1]; E:T 1:1, Table 14, read-out: EC50) is reported as 1.43 nM and the “% Max Cell Lysis” value (SKOV3 cells [1]; E:T 3:1, Table 13) is reported as 16.9%. The EC50 (SKOV3 cells [1]; E:T 3:1, Table 13, read-out: EC50) was 1.06 nM, the “% Max Cell Lysis” value (SKOV3 cells [1]; E:T 5:1, Table 12) was 17.82% and the EC50 (SKOV3 cells [1]; E:T 5:1, Table 12, read-out: EC50) was about 0.032 nM.
“v506: wild-type anti HER2 produced in-house in CHO cells, trastuzumab analog, homodimeric Fc [reference compound]” was tested, and the “% Survival JIMT-1 HER2 2+” value (JIMT-1 cells [2]) was 107%, the Bmax (MCF7 cells [3]; Table 7, FIG. 6C) was 542 and the Bmax (MCF7 cells [3]; Table 8, FIG. 6F) was 571. For the same substance, the Bmax (MCF7 cells [3]; Table 37) was 889, the Kd (MCF7 cells [3]; Table 7, FIG. 6C) was 1.3 nM and the Kd (MCF7 cells [3]; Table 8, FIG. 6F) was 3.5 nM. For the same substance, the Kd (MCF7 cells [3]; Table 37) was 12 nM, the Bmax (JIMT-1 cells [4]; Table 6, FIG. 6B) was 4905 and the Bmax (JIMT-1 cells [4]; Table 36) was 2574. For the same substance, the Kd (JIMT-1 cells [4]; Table 6, FIG. 6B) was 1.88 nM, the Kd (JIMT-1 cells [4]; Table 36) was 3.5 nM and the “% Survival BT-474 HER2 3+” value (BT-474 cells [5]) was 37%. The Bmax (WI-38 cells) was about 366, the “% Survival +HRG” value (BT-474 cells [6]; 10 ng/mL HRG, 5 days, Table 26) was 129% and the “% Survival +EGF” value (BT-474 cells [6]; 50 ng/mL EGF, 5 days, Table 26) was 114%. For the same substance, the “% Survival Antibody only” value (BT-474 cells [6]; 5 days, Table 26) was 41%, the “% Survival +EGF” value (BT-474 cells [6]; Table 46) was 118% and the “% Survival +HRG” value (BT-474 cells [6]; Table 46) was 141%. For the same substance, the “% Survival Antibody only” value (BT-474 cells [6]; Table 46) was 53%, the “% Survival SKOV3 HER2 2+/3+” value (SKOV3 cells [7]; Table 11A) was 88% and the “% Survival SKOV3 HER2 2+/3+” value (SKOV3 cells [7]; Table 11B) was 107%. For the same substance, the “Surface 4° C.” value (BT-474 cells [8]) was 2156, the “Internal 37° C.” value (BT-474 cells [8]) was 3453 and the “Surface 37° C.” value (BT-474 cells [8]) was 1590. The “Surface 4° C.” value (MCF7 cells [9]) was 48, the “Internal 37° C.” value (MCF7 cells [9]) was 48 and the “Surface 37° C.” value (MCF7 cells [9]) was 10. The “Surface 4° C.” value (JIMT-1 cells [10]) was 337, the “Internal 37° C.” value (JIMT-1 cells [10]; 24 h at 37° C.) was 759 and the “Surface 37° C.” value (JIMT-1 cells [10]; 24 h at 37° C.) was −7.1. For the same substance, the “% TGI” value (SKOV3 xenograft [11]; Day 22) was 32%, the “Responders (TV < 50% of control)” value (SKOV3 xenograft [11]; Day 22) was 5/15 and the “Mean TV % change from Baseline” value (SKOV3 xenograft [11]; Day 22, n = 15) was “+486%”. The “Mean TV (mm3)” value (SKOV3 xenograft [11]; Day 22, n = 15) was 1291 mm3, the “Median Survival” value (SKOV3 xenograft [11]; mouse, in vivo) was 36 days and the “% Survival SKBr3 HER2 3+” value (SKBr3 cells) was 52%.
“v7091: biparatopic anti-HER2 antibody, Fab-scFv: pertuzumab Fab chain A, trastuzumab scFv chain B, heterodimeric Fc” was tested, and the “% Survival JIMT-1 HER2 2+” value (JIMT-1 cells [2]) was 85%, the Bmax (MCF7 cells [3]; Table 8, FIG. 6F) was 918 and the Bmax (MCF7 cells [3]; Table 37) was 1216. It also gave a Kd (MCF7 cells [3]; Table 8, FIG. 6F) of 6.5 nM, a Kd (MCF7 cells [3]; Table 37) of 6.1 nM and a Bmax (JIMT-1 cells [4]; Table 36) of 4456. The Kd (JIMT-1 cells [4]; Table 36) was 14 nM, the Bmax (WI-38 cells) was 371 and the Kd (WI-38 cells; apparent KD) was 8.3 nM. For the same substance, the “% Survival +EGF” value (BT-474 cells [6]; Table 46) was 61%, the “% Survival +HRG” value (BT-474 cells [6]; Table 46) was 119% and the “% Survival Antibody only” value (BT-474 cells [6]; Table 46) was 61%. For the same substance, the “Mean TV % change from Baseline” value (SKOV3 xenograft [12]; Day 29) was “+618%”, the “PR (>10% baseline regression)” value (SKOV3 xenograft [12]; Day 29) was 0/11 and the “Responders (TV < 50% of control)” value (SKOV3 xenograft [12]; Day 29) was 4/11. For the same substance, the “ZRD (TV < 20 mm3)” value (SKOV3 xenograft [12]; Day 29) was 0/11, the “Mean TV (mm3)” value (SKOV3 xenograft [12]; Day 29, antibodies 3 mg/kg, IgG 10 mg/kg IV twice per week) was 1354 mm3 and the “Median Survival” value (SKOV3 xenograft [12]; mouse, in vivo) was 37 days. For the same substance, the “Time to progression: Tumor doubling time” value (SKOV3 xenograft [12]; mouse, in vivo) was 16 days, the “Surface 4° C.” value (BT-474 cells [8]) was 2759 and the “Internal 37° C.” value (BT-474 cells [8]) was 5111. The “Surface 37° C.” value (BT-474 cells [8]) was 2227, the “Surface 4° C.” value (MCF7 cells [9]) was 77 and the “Internal 37° C.” value (MCF7 cells [9]) was 87. The “Surface 37° C.” value (MCF7 cells [9]) was 27, the “Surface 4° C.” value (JIMT-1 cells [10]) was 426 and the “Internal 37° C.” value (JIMT-1 cells [10]; 24 h at 37° C.) was 935. For the same substance, the “% Survival SKBr3 HER2 3+” value (SKBr3 cells) was 35%.
For “ado trastuzumab emtansine [v7155, reference compound]”, the “Tumor Growth Rate Inhibition vs v12470” value (ST1616B/TDR xenograft; 5 mg/kg iv Day 0, 7, 14, 21) was −34.7%, the “reduction of growth rate compared to v12470” value (ST1616B/TDR xenograft; mouse, in vivo) was −34.7% and the “Tumor Growth Rate Inhibition vs v17891” value (OVXF1320 xenograft; 5 mg/kg iv Day 1, 8, 15, 22) was 64.9%. The “3D RECIST Scores (day 53) CR (≤−95% of baseline)” value (OVXF1320 xenograft; 5 mg/kg iv, day 53) was 0/10, the “3D RECIST Scores (day 53) PD (>+73% of baseline)” value (OVXF1320 xenograft; 5 mg/kg iv, day 53) was 6/10 and the “Tumor Growth Inhibition” value (HBCx-13B xenograft; 3 mg/kg iv Day 1 and Day 15, vs vehicle) was 62.6%. The “3D RECIST Scores CR (≤−95% of baseline)” value (HBCx-13B xenograft; 3 mg/kg iv, day 32) was 0/15, the “3D RECIST Scores PR (−95% and <−66% of baseline)” value (HBCx-13B xenograft; 3 mg/kg iv, day 32) was 0/15 and the “3D RECIST Scores SD (≥−66% and ≤+73% of baseline)” value (HBCx-13B xenograft; 3 mg/kg iv, day 32) was 0/15.
